Source: patent US4352880A (priority 1979, dated 1982)

Tests used:
S. typhimurium TA1535 [1] = experiment: Homogeneous bioassay, minimum mutagenic concentration; settings: 90% confidence intervals
S. typhimurium TA1535 [2] = experiment: Diffusion bioassay for mutagenicity (mutagenic zone radius), direct mutagens; settings: for rmut (radius of mutagenic zone) / Cmut (minimal mutagenic concentration) / rmut /R / Cmut /co /s: R = 2.5 cm; for rmut (radius of mutagenic zone): 21/2 days; for Cmut /co /s: from figure
[3] = Spectrophotometric half-lifetime; settings: minimal medium/NaCl/phosphate buffer pH=7.0/nutrient medium, 37° C.
S. typhimurium TA 1535 = experiment: Effect of bacteria number on the mutagenic and toxic zones (diffusion bioassay); settings: 25 μl of 1000 μg/ml per disc
[4] = Diffusion coefficient calculated from DM^1/2 = constant; type: physicochemical; settings: calculated from molecular weight and data for glucose
S. typhimurium TA100 = experiment: Diffusion bioassay (reversion assay) with S. typhimurium TA100; settings: for rmut (mutagenic radius zone): R 2.5 cm

CN(N=O)C(=N)N[N+](=O)[O-]
C mut^hom threshold value (S. typhimurium TA1535 [1]): 0.012 ± 0.069
half-lifetime .tau.1/2 from diffusion bioassay (S. typhimurium TA1535 [2]; 21/2 days incubation, TA 1535): 2.20 h
.tau.1/2 (Table 16) (S. typhimurium TA1535 [2]; Table 16): 2.25 h
rmut (radius of mutagenic zone) (S. typhimurium TA1535 [2]; co 0.01 mg/ml): 0.88 ± 0.05 cm
rmut (radius of mutagenic zone) (S. typhimurium TA1535 [2]; co 0.1 mg/ml): 1.55 ± 0.04 cm
rmut (radius of mutagenic zone) (S. typhimurium TA1535 [2]; co 0.5 mg/ml): 1.98 ± 0.02 cm
rmut (radius of mutagenic zone) (S. typhimurium TA1535 [2]; co 1 mg/ml): 2.22 ± 0.05 cm
Cmut (minimal mutagenic concentration) (S. typhimurium TA1535 [2]; co /s 2.21 μg/ml): 0.0072 µg/mL
rmut /R (S. typhimurium TA1535 [2]; co /s 2.21 μg/ml): 0.37 ± 0.02
Cmut /co /s (S. typhimurium TA1535 [2]; co /s 2.21 μg/ml): 3.2 × 10^-3
Cmut (minimal mutagenic concentration) (S. typhimurium TA1535 [2]; co /s 22.1 μg/ml): 0.0053 µg/mL
rmut /R (S. typhimurium TA1535 [2]; co /s 22.1 μg/ml): 0.62 ± 0.01
Cmut /co /s (S. typhimurium TA1535 [2]; co /s 22.1 μg/ml): 2.4 × 10^-4
Cmut (minimal mutagenic concentration) (S. typhimurium TA1535 [2]; co /s 110.52 μg/ml): 0.0045 µg/mL
rmut /R (S. typhimurium TA1535 [2]; co /s 110.52 μg/ml): 0.79 ± 0.01
Cmut /co /s (S. typhimurium TA1535 [2]; co /s 110.52 μg/ml): 4.1 × 10^-5
Cmut (minimal mutagenic concentration) (S. typhimurium TA1535 [2]; co /s 221.04 μg/ml): 0.0033 µg/mL
rmut /R (S. typhimurium TA1535 [2]; co /s 221.04 μg/ml): 0.88 ± 0.02
Cmut /co /s (S. typhimurium TA1535 [2]; co /s 221.04 μg/ml): 1.5 × 10^-5
Cmut threshold value (mean) (S. typhimurium TA1535 [2]; diffusion method, brackets: 90% confidence intervals): 0.0051(0.0033, 0.0081) μg/ml
.tau.1/2 Parametrically (S. typhimurium TA1535 [2]; from slope of ln co vs. rmut, experiments on plates): 2.20 h
.tau.1/2 Spectroscopically [3]: 2.25 h
rtox (S. typhimurium TA 1535; +HIS, 6.4 × 10^4 bacteria): 1.40 ± 0.05 cm
rtox (S. typhimurium TA 1535; +HIS, 6.4 × 10^5 bacteria): 1.35 ± 0.04 cm
rtox (S. typhimurium TA 1535; +HIS, 6.4 × 10^6 bacteria): 1.31 ± 0.07 cm
rtox (S. typhimurium TA 1535; +HIS, 6.4 × 10^7 bacteria): 1.17 ± 0.04 cm
rtox (S. typhimurium TA 1535; +HIS, 6.4 × 10^8 bacteria): 1.1 ± 0.05 cm
rmut (S. typhimurium TA 1535; -HIS, 6.4 × 10^4 bacteria): 2.13 ± 0.02 cm
rtox (S. typhimurium TA 1535; -HIS, 6.4 × 10^4 bacteria): 1.63 ± 0.05 cm
rmut (S. typhimurium TA 1535; -HIS, 6.4 × 10^5 bacteria): 2.24 ± 0.04 cm
rtox (S. typhimurium TA 1535; -HIS, 6.4 × 10^5 bacteria): 1.53 ± 0.07 cm
rmut (S. typhimurium TA 1535; -HIS, 6.4 × 10^6 bacteria): 2.25 ± 0.04 cm
rtox (S. typhimurium TA 1535; -HIS, 6.4 × 10^6 bacteria): 1.39 ± 0.04 cm
rmut (S. typhimurium TA 1535; -HIS, 6.4 × 10^7 bacteria): 2.30 ± 0.04 cm
rtox (S. typhimurium TA 1535; -HIS, 6.4 × 10^7 bacteria): 1.22 ± 0.02 cm
rmut (S. typhimurium TA 1535; -HIS, 6.4 × 10^8 bacteria): 2.26 ± 0.05 cm
rtox (S. typhimurium TA 1535; -HIS, 6.4 × 10^8 bacteria): 1.06 ± 0.06 cm
Diffusion coefficient D [4]: 7.2 × 10^-6 cm^2 /sec
calculated .tau.1/2 lifetime (S. typhimurium TA100; TA100): 2.20 h
half-lifetime .tau.1/2 from diffusion bioassay (S. typhimurium TA100; TA 100, 21/2 days): 2.2 h
size of mutagenic zones compared with TA1535 (S. typhimurium TA100; TA100 vs TA1535, given concentration): Essentially the same size of mutagenic zones
rmut (mutagenic radius zone) (S. typhimurium TA100; co 0.01 mg/ml, 21/2 days): 0.92 ± 0.05 cm
rmut (mutagenic radius zone) (S. typhimurium TA100; co 0.1 mg/ml, 21/2 days): 1.57 ± 0.06 cm
rmut (mutagenic radius zone) (S. typhimurium TA100; co 0.5 mg/ml, 21/2 days): 1.95 ± 0.02 cm
rmut (mutagenic radius zone) (S. typhimurium TA100; co 1 mg/ml, 21/2 days): 2.16 ± 0.05 cm
